Results from PubChem BioAssay AID743279 (National Center for Advancing Translational Sciences (NCATS), 2014).
The list shows a part of the results, in another mix than the full data. Results filed as inconclusive are left out. Active and inactive are the calls of the source. Rule as the data show it: active = activity change below about -50%; inconclusive = mostly about -30% to -49%; inactive = weaker than that.
% is scaled to controls: 0 for no effect and ±100 for the full control effect.

Assay: qHTS for Inhibitors of Inflammasome Signaling: IL-1-beta AlphaLISA Primary Screen
Details: THP-1 LPS/ATP IL-1B secretion, 16 h; at 57.5 µM, stronger effect = lower value
Excerpt: Inflammasomes are a set of intracellular multi-protein complexes that enable autocatalytic activation of inflammatory caspases and drive the innate immune response to counter harmful agents. […] A qHTS assay, based on AlphaLISA technology, was developed to screen the Molecular Libraries Small Molecule Repository (MLSMR) to look for novel inflammasome inhibitors. The assay detects IL-1B using AlphaLISA anti-IL-1B acceptor and donor beads. A decreased emission signal, indicating reduced IL-1B secretion, is the desired outcome for this assay. NIH Chemical Genomics Center [NCGC] NIH Molecular Libraries Probe Centers Network [MLPCN] MLPCN Grant: MH095513 Assay Provider: Shyam Biswal Ph.D., Johns Hopkins University Immunity. 2012 Jul 27;37(1):85-95. PMID: 22819042 [2] Curr Pharm Des. 2012;18(16):2320-8. PMID: 22390695
Three microliters containing 3000 THP-1 cells were dispensed into the wells of solid, white, tissue culture treated Greiner 1,536-well plates. Library compounds and positive control, Glyburide, were pin-transferred (23 nL) by a Kalypsys pin-tool equipped with a 1,536-pin array, resulting in final compound concentration ranges of 2.5 nM to 57.5 uM. After 1 hr of cell culture incubation (37 °C, 5% CO2), 1 microL of 1 microg/mL lipopolysaccharide (250 ng/mL, final) and 5 mM ATP (1.25 mM, final) were added to stimulate the cells. After 16 hr of cell culture incubation with the compounds, 1.5 uL of anti-IL-1B acceptor beads (6 ug/mL, final) and biotinylated antibody (0.6 nM, final) were added to the plate, followed by a 1 hr incubation at ambient temperature. To detect the secreted IL-1B, 1.5 uL of AlphaLISA SA-Donor beads (24 ug/mL, final) were added, followed by 30 min of incubation in the dark at ambient temperature. The AlphaLISA signal was read by a PerkinElmer EnVision plate reader with an ultrasensitive luminescence detector and 1536 Plate HTS AlphaScreen aperture (excitation of 680nm and emission of 615nm).
In the case of `COc1ccc(NP(C)(=O)Oc2ccccc2OC)cc1` (stereo not given), the activity change is reported as inactive: 12%. With `CN(C)CCOC(=O)C(O)(c1ccccc1)C1CCCCC1` (stereo not given) the activity change was inactive: -3.9%. With `COc1ccc(OP(C)(=O)Nc2cccc(Br)c2)cc1` (stereo not given) the activity change was inactive: 8.56%. In the case of `Cc1c(C(c2ccc3c(c2)OCO3)c2c(C)n(C)n(-c3ccccc3)c2=O)c(=O)n(-c2ccccc2)n1C.O=[N+]([O-])c1cc([N+](=O)[O-])c(O)c([N+](=O)[O-])c1`, the activity change is reported as inactive: 12.6%. For `Cc1cc(-c2cccc3ccccc23)c(C)cn1.O=[N+]([O-])c1cc([N+](=O)[O-])c(O)c([N+](=O)[O-])c1`, the activity change was inactive: 37.1%. In the case of `O=[N+]([O-])c1ccc(OP2(=O)COCCO2)cc1` (stereo not given), the activity change is reported as inactive: 2.91%. In the case of `CCOP(C)(=S)SCC(=O)NC(C)(CC)C(=O)O` (stereo not given), the activity change is reported as inactive: -10.5%. In the case of `CP(=O)(Nc1ccc(SC(F)(F)F)cc1)Oc1ccc(F)cc1` (stereo not given), the activity change is reported as inactive: -13.7%. In the case of `O=[N+]([O-])c1cc([N+](=O)[O-])c(C(F)(F)F)c([N+](=O)[O-])c1O`, the activity change is reported as inactive: 42.8%. In the case of `Cc1ccccc1NP(C)(=O)Nc1ccccc1C`, the activity change is reported as inactive: 7.68%. In the case of `CP(=O)(Nc1ccc2c(c1)OCCO2)Oc1ccccc1` (stereo not given), the activity change is reported as inactive: -13.7%. In the case of `CC(C)c1ccc(OP(C)(=O)Nc2ccc(SC(F)(F)F)cc2)cc1` (stereo not given), the activity change is reported as “active”. In the case of `O=C(OCCN1CCN(CCOCc2ccccc2)CC1)C(O)(c1ccccc1)c1ccccc1`, the activity change is reported as inactive: -13.5%. In the case of `COc1ccc(OP(C)(=O)Nc2ccc(SC(F)(F)F)cc2)cc1` (stereo not given), the activity change is reported as “active”. With `CCOC(=O)c1ccc(NP(C)(=O)Oc2ccc(F)cc2)cc1` (stereo not given) the activity change was inactive: 12.4%. In the case of `CCCCCOc1ccc(NP(C)(=O)Oc2ccc(Cl)cc2Cl)cc1` (stereo not given), the activity change is reported as inactive: -18.6%. With `CP(=O)(Nc1ccccc1)Oc1ccc(F)cc1` (stereo not given) the activity change was inactive: -4.8%. For `Cc1c([N+](=O)[O-])cc([N+](=O)[O-])c(Br)c1[N+](=O)[O-]`, the activity change was inactive: -0.836%. With `COc1ccc(OP(C)(=O)Nc2ccccc2Br)cc1` (stereo not given) the activity change was inactive: 0.532%. For `COc1ccccc1OP(C)(=O)Nc1ccc(C)c(C)c1` (stereo not given), the activity change was inactive: -4.19%. With `Cc1cc(C)cc(OP(C)(=O)Nc2cccc(C(F)(F)F)c2)c1` (stereo not given) the activity change was inactive: -23.1%. For `CP(=O)(Nc1ccc(Cl)cc1Cl)Oc1ccccc1` (stereo not given), the activity change was inactive: -7.31%. For `CCCCCCCCCCCCCCCC1C[N+](C)(C)CCOP(C)(=O)O1` (stereo not given), the activity change was “active”. In the case of `CP(=O)(OCCOc1ccccc1)OCCOc1ccccc1`, the activity change is reported as inactive: 18.4%. For `CN(C)CCOC(=O)C(O)(c1ccccc1)C1CCCC1` (stereo not given), the activity change was inactive: 11%. In the case of `COc1ccccc1OP(C)(=O)Nc1ccc(Br)cc1` (stereo not given), the activity change is reported as inactive: -12.5%. With `CCc1ccc(OP(C)(=O)O)cc1` the activity change was inactive: 2.96%. For `COc1ccccc1OP(C)(=O)Nc1ccc(C)cc1C` (stereo not given), the activity change was inactive: -1.53%. With `CP(=O)(Nc1ccccn1)Oc1ccccc1` (stereo not given) the activity change was inactive: -2.84%. With `Cc1c(NP(C)(=O)Oc2ccc(C(C)C)cc2)c(=O)n(-c2ccccc2)n1C` (stereo not given) the activity change was inactive: 12%. In the case of `O=[N+]([O-])c1cc([N+](=O)[O-])c(Nc2ccccn2)c([N+](=O)[O-])c1`, the activity change is reported as “active”. In the case of `CCc1ccc(OP(C)(=O)Nc2cccnc2)cc1` (stereo not given), the activity change is reported as inactive: 3.81%. For `CP(=O)(Oc1ccccc1)N1CCOC1=O` (stereo not given), the activity change was inactive: 5.17%. In the case of `O=C(OCCCN1CCCC1)C(O)(c1ccccc1)C1CCCCC1` (stereo not given), the activity change is reported as inactive: -6.09%. For `COc1ccccc1OP(C)(=O)Nc1c(C)n(C)n(-c2ccccc2)c1=O` (stereo not given), the activity change was inactive: 5.78%. For `COc1ccc(OP(C)(=O)Nc2ccc(Br)cc2)cc1` (stereo not given), the activity change was inactive: -8.77%. In the case of `CCN(CC)CC(O)COC(=O)C(O)(c1ccccc1)C1CCCCC1` (stereo not given), the activity change is reported as inactive: -22.4%. For `CN(C)C(=O)c1c([N+](=O)[O-])cc([N+](=O)[O-])cc1[N+](=O)[O-]`, the activity change was inactive: 1.19%. For `CC(C)(C)c1ccc(OP(C)(=O)O)cc1`, the activity change was inactive: 16.5%. In the case of `CP(=O)(OC12CC3CC(CC(C3)C1)C2)OC12CC3CC(CC(C3)C1)C2`, the activity change is reported as inactive: -2.91%. In the case of `CCOC(=O)c1ccc(NP(C)(=O)Oc2ccc(Cl)cc2)cc1` (stereo not given), the activity change is reported as inactive: 12.6%. For `Nc1ccc2c(ccc3cccnc32)n1.O=[N+]([O-])c1cc([N+](=O)[O-])c(O)c([N+](=O)[O-])c1`, the activity change was inactive: 0%. With `COc1ccccc1OP(C)(=O)Nc1ccccc1` (stereo not given) the activity change was inactive: 4.04%. With `CP(=O)(Nc1ccccc1Br)Oc1ccccc1` (stereo not given) the activity change was inactive: 10.6%. For `CP(=S)(Nn1cnnc1)Oc1ccccc1` (stereo not given), the activity change was inactive: -3.44%. With `Cc1cc(C)cc(OP(C)(=O)Nc2ccc(SC(F)(F)F)cc2)c1` (stereo not given) the activity change was “active”. In the case of `CP(=O)(NC(=O)Nc1ccccc1)Oc1ccccc1` (stereo not given), the activity change is reported as inactive: 13.6%. For `CP(=O)(Oc1ccccc1)OC(c1ccccc1)C(F)(F)F` (stereo not given), the activity change was inactive: -6.12%. For `CP(=O)(Nc1ccc(SC(F)(F)F)cc1)Oc1ccc(Cl)cc1` (stereo not given), the activity change was inactive: -8.51%. With `Cc1cccc(C)c1OP(C)(=O)Nc1ccc(SC(F)(F)F)cc1` (stereo not given) the activity change was inactive: 39.8%. With `CP(=O)(Nc1ccccn1)Oc1ccc(Cl)cc1` (stereo not given) the activity change was inactive: 9.45%. In the case of `CCOP(C)(=S)SCC(=O)NC(C)C(=O)O` (stereo not given), the activity change is reported as inactive: 0%. In the case of `O=[N+]([O-])c1cc([N+](=O)[O-])c(O)c([N+](=O)[O-])c1.c1ccc(Oc2ccncc2)cc1`, the activity change is reported as inactive: -3.1%. For `CCOC(=O)c1ccc(NP(C)(=O)Oc2ccc(OC)cc2)cc1` (stereo not given), the activity change was inactive: -0.769%. For `CCN(CC)CCCOC(=O)C(O)(c1ccccc1)c1ccccc1`, the activity change was inactive: -12.5%. In the case of `COc1ccccc1-c1ccccn1.O=[N+]([O-])c1cc([N+](=O)[O-])c(O)c([N+](=O)[O-])c1`, the activity change is reported as inactive: 26.1%. In the case of `Cc1cccc(C)c1OP(C)(N)=O` (stereo not given), the activity change is reported as inactive: -17.5%. In the case of `CC(C)(C)c1ccc(OP(C)(=O)Nc2ccc(SC(F)(F)F)cc2)cc1` (stereo not given), the activity change is reported as “active”. In the case of `O=[N+]([O-])c1ccc2c(c1)C=Nc1ccccc1O2`, the activity change is reported as inactive: 11.4%. In the case of `COc1ccc(OP(C)(=O)Nc2cccc(F)c2)cc1` (stereo not given), the activity change is reported as inactive: 29%. In the case of `COc1ccccc1OP(C)(=O)Nc1cc(Cl)ccc1C` (stereo not given), the activity change is reported as inactive: -19.8%. For `Cc1cc(C)cc(OP(C)(N)=O)c1` (stereo not given), the activity change was inactive: 3.32%. With `CCOC(=O)c1ccc(NP(C)(=O)Oc2ccccc2)cc1` (stereo not given) the activity change was inactive: 8.88%. For `Cc1ccc(NP(C)(=O)Oc2ccccc2)c(C)c1` (stereo not given), the activity change was inactive: -4.59%. For `COc1ccccc1OP(C)(=O)Nc1ccc(C)cc1` (stereo not given), the activity change was inactive: -6.11%. For `CC1=NCCc2c1[nH]c1ccccc21.O=[N+]([O-])c1cc([N+](=O)[O-])c(O)c([N+](=O)[O-])c1`, the activity change was inactive: 17%. With `Cc1cc(C)cc(OP(C)(=O)Nc2ccc(C)cc2C)c1` (stereo not given) the activity change was inactive: -11.9%. With `CCOC(=O)c1ccc(NP(C)(=O)Oc2cc(C)cc(C)c2)cc1` (stereo not given) the activity change was inactive: 0%. With `Cc1cc(C)cc(OP(C)(=O)Nc2ccccn2)c1` (stereo not given) the activity change was inactive: 2.58%. With `CP(=O)(Nc1cccc(Br)c1)Oc1ccccc1` (stereo not given) the activity change was inactive: -15.2%. With `Cc1ccc(C)c(NP(C)(=O)Oc2ccccc2)c1` (stereo not given) the activity change was inactive: 12.2%. For `CN(Cc1cccnc1)C(=O)COc1ccc(Cl)c(Cl)c1.O=[N+]([O-])c1cc([N+](=O)[O-])c(O)c([N+](=O)[O-])c1`, the activity change was inactive: 7.91%. With `O=[N+]([O-])c1cc([N+](=O)[O-])c(-n2nnc3ccccc32)c([N+](=O)[O-])c1` the activity change was inactive: -27.7%. In the case of `Cc1nc2ccc3ccccc3c2s1.O=[N+]([O-])c1cc([N+](=O)[O-])c(O)c([N+](=O)[O-])c1`, the activity change is reported as inactive: 23.4%. In the case of `O=[N+]([O-])c1cc([N+](=O)[O-])c(-c2cnn(-c3ccccc3)c2)c([N+](=O)[O-])c1`, the activity change is reported as “active”. For `CC1=C2N=C(C=C3N=C(C(C)=C4[N-][C@@](C)([C@@H]5N=C1[C@](C)(CCC(=O)NC[C@@H](C)OP(=O)([O-])O[C@H]1[C@@H](O)[C@@H](n6cnc7cc(C)c(C)cc76)O[C@@H]1CO)[C@H]5CC(N)=O)[C@@](C)(CC(N)=O)[C@@H]4CCC(N)=O)[C@@](C)(CC(N)=O)[C@@H]3CCC(N)=O)C(C)(C)[C@@H]2CCC(N)=O.[C-]#N.[Co+3]`, the activity change was inactive: -3.36%. For `O=[N+]([O-])c1cc([N+](=O)[O-])c(Nc2nnnn2CCO)c([N+](=O)[O-])c1`, the activity change was inactive: 1.25%. For `CP(=O)(Nc1ccc(SC(F)(F)F)cc1)Oc1ccccc1` (stereo not given), the activity change was “active”. With `CN1CCCCC1COC(=O)C1(O)c2ccccc2CCc2ccccc21` (stereo not given) the activity change was active: -69.9%. With `COc1ccccc1OP(C)(=O)Nc1c(C)cccc1C` (stereo not given) the activity change was inactive: 15.5%.
